Experimental data as given in patent US20100267765A1, “Pharmaceutical Compositions and Methods for CCR5 Antagonists” (priority 2007, published 2010).

Experiments:
Assay type in all cases: in vivo, human
LDL cholesterol = assay: MERIT study: on-treatment fasting LDL cholesterol vs NCEP cutpoints; details: with Combivir
Excerpt: (§1) The MERIT study design included a fasting metabolic assessment at baseline and at Weeks 24 and 48 or at early study discontinuation, to evaluate the fasted lipid values in the MERIT study and their potential effect on cardiovascular risk.
(§2) For a 50% smoking rate scenario (which approximates to the smoking rate seen in the DAD Study-Friis-Møller N, et al. N Engl J Med 2003; 349:1993-2003), smoking status (yes/no) was randomly imputed to the study population 500 times, by sampling from a binomial distribution with a probability of success of 0.5. Smoking status was assumed to remain constant for the duration of the study.

fasting lipid parameters = assay: MERIT study: fasting lipoprotein profile (total cholesterol, HDL, LDL, triglycerides); details: maraviroc+Combivir, 48 weeks
Excerpt: as §1, §2

[1] = MERIT study: 10-year coronary heart disease risk by Framingham equation; details: with Combivir
Excerpt: as §2

[2] = patients already above threshold at baseline excluded, P<0.0001

(N-{(1S)-3-[3-isopropyl-5-methyl-4H-1,2,4-triazole-4-yl]-exo-8-azabicyclo[3.2.1]oct-8-yl}-1-phenylpropyl)-4,4-difluorocyclohexanecarboxamide) [maraviroc]
Number of patients who initiated LDL-lowering therapy during the study (LDL cholesterol): three | Relation of change in LDL cholesterol to baseline LDL cholesterol (LDL cholesterol; FIG. 2b): inversely related | Patients with high on-treatment LDL cholesterol level (≧160 mg/dL) at both Week 24 and Week 48 (%) (LDL cholesterol; P=0.007): 0.3% | Patients with high on-treatment LDL cholesterol level (≧160 mg/dL) at both Week 24 and Week 48 (n/N) (LDL cholesterol; P=0.007): 1/336 | Patients who developed LDL cholesterol levels during the study that were ≧160 mg/dL (%) (LDL cholesterol; [2]): 0.9% | Patients who developed LDL cholesterol levels during the study that were ≧160 mg/dL (n/N) (LDL cholesterol; [2]): 3/336 | Impact on lipid profiles (fasting lipid parameters): no negative impact on lipid profiles | Absolute CHD 10-year risk (mean [SD]) ([1]; Week 24, simulated smoking rate 50%): 2.1% | Absolute CHD 10-year risk (mean [SD]) ([1]; Week 48, simulated smoking rate 50%): 2.2%
